Columns and labels:
[1] = target: OPRM1 (Mμ opioid receptor gene) receptor (Homo sapiens, UniProt P35372); conditions: tested form: HCl
mice [2] = assay: Anti-constipation study: antagonizing the antidiarrheal effect of loperamide hydrochloride (castor oil diarrhea); conditions: Table 10: 600 nmol/kg by gavage + Loperamide Hydrochloride + Castor Oil; tested form: HCl
mice [3] = assay: Mouse hot plate analgesia experiment (antagonism of morphine analgesia, blood-brain barrier study); assay type: in vivo; conditions: tested form: HCl; for Average Pain Threshold after Administration (s) Mean ± SD: 60 minutes after administration

Protein sequences, listed by entry. Tags and fused reporters are not part of them.
UniProt P35372, whole entry: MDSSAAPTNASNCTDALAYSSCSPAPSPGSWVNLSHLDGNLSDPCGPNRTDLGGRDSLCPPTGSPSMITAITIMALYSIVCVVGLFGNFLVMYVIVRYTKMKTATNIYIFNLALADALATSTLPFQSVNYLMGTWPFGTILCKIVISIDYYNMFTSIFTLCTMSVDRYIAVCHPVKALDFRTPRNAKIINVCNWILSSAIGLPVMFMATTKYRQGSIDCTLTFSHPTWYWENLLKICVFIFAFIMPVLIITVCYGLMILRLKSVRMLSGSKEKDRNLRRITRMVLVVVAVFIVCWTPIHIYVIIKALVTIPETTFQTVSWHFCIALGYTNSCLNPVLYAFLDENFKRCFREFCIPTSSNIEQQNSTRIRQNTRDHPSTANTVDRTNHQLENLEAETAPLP

For `C=CCN1CC[C@]23c4c5ccc(O)c4O[C@H]2[C@@H](OCCOCCOCCOCCOCCOCCOC)CC[C@@]3(O)[C@H]1C5`, the IC50 ([1]; CHO-K1/Gα15/OPRM1 cells, inhibitor detection against EC80 positive agonist, RFU) was 1320 nM, the “Inhibition rate (%) of highest concentration (mean ± standard deviation) (N = 2)” value ([1]; highest concentration 10000 nM) was 90.44 ± 3.22% and the “Total Number of Diarrhea Times Six Hours after Administration” value (mice [2]) was 9.75 ± 6.96. For the same compound, the “Average Pain Threshold before Administration (s) Mean ± SD” value (mice [3]; 3.10 μmol/kg + Morphine group) was 20.38 ± 4.53 s, the “Percentage of Increase in Pain Threshold” value (mice [3]; 3.10 μmol/kg + morphine) was 155.79% and the “Average Pain Threshold after Administration (s) Mean ± SD” value (mice [3]; 3.10 μmol/kg subcutaneous + Morphine by gavage) was 52.13 ± 14.78 s. The “Average Pain Threshold before Administration (s) Mean ± SD” value (mice [3]; 15.52 μmol/kg + Morphine group) was 24.00 ± 8.38 s, the “Percentage of Increase in Pain Threshold” value (mice [3]; 15.52 μmol/kg + morphine) was 112.50% and the “Average Pain Threshold after Administration (s) Mean ± SD” value (mice [3]; 15.52 μmol/kg subcutaneous + Morphine by gavage) was 51.00 ± 11.43 s. For the same compound, the “Passage through the blood-brain barrier (concluded from antagonism of the analgesic effect of morphine)” value (mice [3]; mouse hot plate, conjugate subcutaneous after morphine by gavage) was “cannot pass through the blood-brain barrier”.
